# Assay results from publication PMC8217813, “Bridging Computational Vaccinology and Vaccine Development Through Systematic Identification, Characterization, and Downselection of Conserved and Variable Circumsporozoite Protein CD4 T Cell Epitopes From Diverse Plasmodium falciparum Strains” (Frontiers in Immunology, 2021).
# Tested on: CD4 T cells co-cultured with autologous DCs from PBMCs
# Type: cell-based, human
compound,measurement,value
CC[C@H](C)[C@H](NC(=O)[C@H](Cc1c[nH]cn1)NC(=O)[C@H](CCCCN)NC(C)=O)C(=O)N[C@@H](CCCCN)C(=O)N[C@@H](CCC(=O)O)C(=O)N[C@@H](Cc1ccc(O)cc1)C(=O)N[C@@H](CC(C)C)C(=O)N[C@@H](CC(N)=O)C(=O)N[C@@H](CCCCN)C(=O)N[C@H](C(=O)N[C@@H](CCC(N)=O)C(=O)N[C@@H](CC(N)=O)C(=O)N[C@@H](CO)C(=O)N[C@@H](CC(C)C)C(=O)N[C@@H](CO)C(=O)N[C@H](C(=O)N[C@@H](CCC(=O)O)C(=O)N[C@@H](Cc1c[nH]c2ccccc12)C(=O)N[C@@H](CO)C(N)=O)[C@@H](C)O)[C@@H](C)CC [Cluster C3],"Percentage of donors demonstrating IFN-γ responses, DR1",20%
same,"Percentage of donors demonstrating IFN-γ responses, DR3",33%
same,"Percentage of donors demonstrating IFN-γ responses, DR4",50%
same,"Percentage of donors demonstrating IFN-γ responses, DR7",50%
same,"Percentage of donors demonstrating IFN-γ responses, DR8",75%
same,"Percentage of donors demonstrating IFN-γ responses, DR9",50%
same,"Percentage of donors demonstrating IFN-γ responses, DR11",25%
same,"Percentage of donors demonstrating IFN-γ responses, DR13",0%
same,"Percentage of donors demonstrating IFN-γ responses, DR15",29%
same,"Percentage of donors demonstrating IL-2 responses, DR1",20%
same,"Percentage of donors demonstrating IL-2 responses, DR3",33%
same,"Percentage of donors demonstrating IL-2 responses, DR4",40%
same,"Percentage of donors demonstrating IL-2 responses, DR7",50%
same,"Percentage of donors demonstrating IL-2 responses, DR8",50%
same,"Percentage of donors demonstrating IL-2 responses, DR9",50%
same,"Percentage of donors demonstrating IL-2 responses, DR11",25%
same,"Percentage of donors demonstrating IL-2 responses, DR13",0%
same,"Percentage of donors demonstrating IL-2 responses, DR15",14%
same,"Percentage of donors demonstrating IL-4 responses, DR1",20%
same,"Percentage of donors demonstrating IL-4 responses, DR3",0%
same,"Percentage of donors demonstrating IL-4 responses, DR4",0%
same,"Percentage of donors demonstrating IL-4 responses, DR7",0%
same,"Percentage of donors demonstrating IL-4 responses, DR8",0%
same,"Percentage of donors demonstrating IL-4 responses, DR9",0%
same,"Percentage of donors demonstrating IL-4 responses, DR11",0%
same,"Percentage of donors demonstrating IL-4 responses, DR13",0%
same,"Percentage of donors demonstrating IL-4 responses, DR15",0%
same,"Percentage of donors demonstrating IL-10 responses, DR1",0%
same,"Percentage of donors demonstrating IL-10 responses, DR3",17%
same,"Percentage of donors demonstrating IL-10 responses, DR4",10%
same,"Percentage of donors demonstrating IL-10 responses, DR7",0%
same,"Percentage of donors demonstrating IL-10 responses, DR8",25%
same,"Percentage of donors demonstrating IL-10 responses, DR9",50%
same,"Percentage of donors demonstrating IL-10 responses, DR11",0%
same,"Percentage of donors demonstrating IL-10 responses, DR13",0%
same,"Percentage of donors demonstrating IL-10 responses, DR15",29%
same,"Percentage of donors demonstrating TNF-α responses, DR1",40%
same,"Percentage of donors demonstrating TNF-α responses, DR3",33%
same,"Percentage of donors demonstrating TNF-α responses, DR4",40%
same,"Percentage of donors demonstrating TNF-α responses, DR7",50%
same,"Percentage of donors demonstrating TNF-α responses, DR8",50%
same,"Percentage of donors demonstrating TNF-α responses, DR9",50%
same,"Percentage of donors demonstrating TNF-α responses, DR11",75%
same,"Percentage of donors demonstrating TNF-α responses, DR13",14%
same,"Percentage of donors demonstrating TNF-α responses, DR15",14%
